# Assay results taken from ChEMBL document CHEMBL1123005, “1-Azacycloalkyl-1,4-benzodiazepin-2-ones with antianxiety-antidepressant actions” (J Med Chem, 1985).
# Amino acid sequences for entries named in this document (tags omitted). A change or cut given only in a name is not applied to a line headed by its entry.
# UniProt O09028: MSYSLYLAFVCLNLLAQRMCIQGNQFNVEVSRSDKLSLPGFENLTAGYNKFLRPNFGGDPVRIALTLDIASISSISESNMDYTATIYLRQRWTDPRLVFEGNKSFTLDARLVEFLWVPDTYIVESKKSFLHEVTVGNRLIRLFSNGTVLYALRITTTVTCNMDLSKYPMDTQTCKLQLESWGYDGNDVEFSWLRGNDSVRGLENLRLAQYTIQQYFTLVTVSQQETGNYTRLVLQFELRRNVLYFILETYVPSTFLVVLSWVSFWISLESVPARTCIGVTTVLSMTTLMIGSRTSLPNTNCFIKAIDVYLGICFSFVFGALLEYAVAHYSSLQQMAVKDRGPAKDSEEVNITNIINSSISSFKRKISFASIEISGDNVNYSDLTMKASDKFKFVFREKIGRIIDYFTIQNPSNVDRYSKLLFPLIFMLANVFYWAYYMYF
# UniProt P15431: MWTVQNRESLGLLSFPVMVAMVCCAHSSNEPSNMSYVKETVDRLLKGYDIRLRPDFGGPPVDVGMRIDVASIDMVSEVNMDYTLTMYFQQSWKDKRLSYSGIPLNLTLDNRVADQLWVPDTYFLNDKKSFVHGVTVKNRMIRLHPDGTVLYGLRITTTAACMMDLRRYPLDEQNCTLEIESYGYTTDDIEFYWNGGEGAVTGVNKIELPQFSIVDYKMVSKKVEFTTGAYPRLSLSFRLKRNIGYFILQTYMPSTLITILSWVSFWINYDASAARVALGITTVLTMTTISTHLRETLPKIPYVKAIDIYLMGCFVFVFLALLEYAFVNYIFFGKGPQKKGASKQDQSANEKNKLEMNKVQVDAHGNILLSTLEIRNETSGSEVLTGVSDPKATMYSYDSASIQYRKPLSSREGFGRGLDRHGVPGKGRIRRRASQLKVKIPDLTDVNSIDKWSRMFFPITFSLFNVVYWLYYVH
# UniProt P18508: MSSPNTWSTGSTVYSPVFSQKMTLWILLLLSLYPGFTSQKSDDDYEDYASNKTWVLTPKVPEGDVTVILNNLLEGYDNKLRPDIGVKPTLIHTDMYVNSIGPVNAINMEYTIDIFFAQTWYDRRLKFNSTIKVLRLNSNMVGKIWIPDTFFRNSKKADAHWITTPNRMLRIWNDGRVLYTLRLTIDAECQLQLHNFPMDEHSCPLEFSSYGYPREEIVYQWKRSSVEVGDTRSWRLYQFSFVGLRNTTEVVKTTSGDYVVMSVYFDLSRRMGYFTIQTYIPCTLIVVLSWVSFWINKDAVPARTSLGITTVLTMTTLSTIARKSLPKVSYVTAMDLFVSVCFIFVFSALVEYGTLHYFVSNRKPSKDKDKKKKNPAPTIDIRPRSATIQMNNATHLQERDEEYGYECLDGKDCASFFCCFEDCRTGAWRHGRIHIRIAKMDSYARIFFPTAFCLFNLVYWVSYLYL
# UniProt P19969: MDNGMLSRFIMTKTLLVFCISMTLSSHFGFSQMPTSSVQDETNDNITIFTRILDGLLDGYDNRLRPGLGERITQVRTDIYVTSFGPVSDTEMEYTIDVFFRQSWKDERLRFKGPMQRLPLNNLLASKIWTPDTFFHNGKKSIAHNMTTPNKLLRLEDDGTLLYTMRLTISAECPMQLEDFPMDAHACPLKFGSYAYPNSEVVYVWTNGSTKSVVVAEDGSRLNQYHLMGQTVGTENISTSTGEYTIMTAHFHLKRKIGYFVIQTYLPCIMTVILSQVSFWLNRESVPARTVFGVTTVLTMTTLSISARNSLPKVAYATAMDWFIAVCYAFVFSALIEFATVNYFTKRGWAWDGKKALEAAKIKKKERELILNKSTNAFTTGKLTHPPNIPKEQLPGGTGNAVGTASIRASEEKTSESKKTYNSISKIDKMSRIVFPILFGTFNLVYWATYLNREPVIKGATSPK
# UniProt P20236: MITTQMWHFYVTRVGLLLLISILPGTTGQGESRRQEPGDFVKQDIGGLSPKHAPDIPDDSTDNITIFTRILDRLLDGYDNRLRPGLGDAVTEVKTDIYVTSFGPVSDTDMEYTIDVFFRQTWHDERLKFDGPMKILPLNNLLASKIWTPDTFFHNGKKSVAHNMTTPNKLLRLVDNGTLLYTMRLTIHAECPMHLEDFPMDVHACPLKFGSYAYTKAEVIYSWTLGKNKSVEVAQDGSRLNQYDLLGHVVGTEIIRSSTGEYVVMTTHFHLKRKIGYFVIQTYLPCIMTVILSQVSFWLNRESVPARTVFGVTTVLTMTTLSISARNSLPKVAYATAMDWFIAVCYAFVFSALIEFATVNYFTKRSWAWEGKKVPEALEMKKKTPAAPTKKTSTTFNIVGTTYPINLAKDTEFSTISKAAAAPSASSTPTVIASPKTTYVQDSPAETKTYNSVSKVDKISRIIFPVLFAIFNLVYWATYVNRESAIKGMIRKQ
# UniProt P23574: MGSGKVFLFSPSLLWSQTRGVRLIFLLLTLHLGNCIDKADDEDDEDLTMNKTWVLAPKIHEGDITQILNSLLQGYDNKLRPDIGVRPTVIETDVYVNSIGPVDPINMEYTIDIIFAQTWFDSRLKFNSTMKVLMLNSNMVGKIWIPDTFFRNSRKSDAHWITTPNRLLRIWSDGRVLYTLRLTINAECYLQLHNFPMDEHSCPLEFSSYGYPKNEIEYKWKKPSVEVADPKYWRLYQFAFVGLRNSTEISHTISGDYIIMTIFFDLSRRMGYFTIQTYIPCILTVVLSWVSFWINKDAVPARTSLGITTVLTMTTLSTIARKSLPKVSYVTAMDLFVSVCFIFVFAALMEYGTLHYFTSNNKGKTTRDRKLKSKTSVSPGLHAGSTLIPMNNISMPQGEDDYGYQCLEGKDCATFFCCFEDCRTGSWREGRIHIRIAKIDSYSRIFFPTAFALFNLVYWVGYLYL
# UniProt P23576: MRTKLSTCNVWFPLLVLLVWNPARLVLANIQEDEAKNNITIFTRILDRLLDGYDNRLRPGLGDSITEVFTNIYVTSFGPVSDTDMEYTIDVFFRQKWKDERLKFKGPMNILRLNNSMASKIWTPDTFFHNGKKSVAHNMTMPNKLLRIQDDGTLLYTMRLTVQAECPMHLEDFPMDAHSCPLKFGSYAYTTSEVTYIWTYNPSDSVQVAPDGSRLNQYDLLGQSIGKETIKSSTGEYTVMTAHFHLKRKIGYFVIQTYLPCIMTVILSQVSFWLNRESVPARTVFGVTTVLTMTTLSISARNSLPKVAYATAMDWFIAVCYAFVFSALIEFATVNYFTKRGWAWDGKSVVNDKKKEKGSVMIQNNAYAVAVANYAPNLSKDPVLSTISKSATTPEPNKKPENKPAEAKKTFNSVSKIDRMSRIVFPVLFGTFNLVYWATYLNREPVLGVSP
# UniProt P28471: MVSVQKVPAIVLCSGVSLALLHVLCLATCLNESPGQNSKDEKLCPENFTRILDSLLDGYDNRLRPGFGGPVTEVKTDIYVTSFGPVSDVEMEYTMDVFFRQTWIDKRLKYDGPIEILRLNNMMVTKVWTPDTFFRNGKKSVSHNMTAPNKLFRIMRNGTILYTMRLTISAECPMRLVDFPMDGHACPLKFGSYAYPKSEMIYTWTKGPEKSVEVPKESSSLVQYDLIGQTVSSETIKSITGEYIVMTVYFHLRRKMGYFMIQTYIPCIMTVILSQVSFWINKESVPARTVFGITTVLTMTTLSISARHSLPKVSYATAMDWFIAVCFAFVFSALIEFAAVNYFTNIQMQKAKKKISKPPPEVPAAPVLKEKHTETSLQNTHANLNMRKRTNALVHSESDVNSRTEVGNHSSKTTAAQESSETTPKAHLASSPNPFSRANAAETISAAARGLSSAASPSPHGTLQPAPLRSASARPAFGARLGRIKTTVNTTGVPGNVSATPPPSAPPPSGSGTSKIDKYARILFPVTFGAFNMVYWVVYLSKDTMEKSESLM
# UniProt P28473: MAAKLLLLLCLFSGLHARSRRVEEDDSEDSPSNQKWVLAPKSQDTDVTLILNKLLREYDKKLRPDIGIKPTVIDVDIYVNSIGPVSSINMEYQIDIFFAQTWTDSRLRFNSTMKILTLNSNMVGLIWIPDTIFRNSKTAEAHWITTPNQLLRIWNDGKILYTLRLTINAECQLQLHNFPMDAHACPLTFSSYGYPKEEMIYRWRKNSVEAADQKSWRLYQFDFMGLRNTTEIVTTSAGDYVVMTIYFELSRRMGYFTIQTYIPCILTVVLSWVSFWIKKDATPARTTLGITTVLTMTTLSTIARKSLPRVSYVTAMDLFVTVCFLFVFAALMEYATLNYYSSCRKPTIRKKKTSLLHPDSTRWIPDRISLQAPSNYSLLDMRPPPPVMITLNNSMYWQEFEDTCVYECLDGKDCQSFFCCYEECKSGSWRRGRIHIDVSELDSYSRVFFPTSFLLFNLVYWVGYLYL
# UniProt P62813: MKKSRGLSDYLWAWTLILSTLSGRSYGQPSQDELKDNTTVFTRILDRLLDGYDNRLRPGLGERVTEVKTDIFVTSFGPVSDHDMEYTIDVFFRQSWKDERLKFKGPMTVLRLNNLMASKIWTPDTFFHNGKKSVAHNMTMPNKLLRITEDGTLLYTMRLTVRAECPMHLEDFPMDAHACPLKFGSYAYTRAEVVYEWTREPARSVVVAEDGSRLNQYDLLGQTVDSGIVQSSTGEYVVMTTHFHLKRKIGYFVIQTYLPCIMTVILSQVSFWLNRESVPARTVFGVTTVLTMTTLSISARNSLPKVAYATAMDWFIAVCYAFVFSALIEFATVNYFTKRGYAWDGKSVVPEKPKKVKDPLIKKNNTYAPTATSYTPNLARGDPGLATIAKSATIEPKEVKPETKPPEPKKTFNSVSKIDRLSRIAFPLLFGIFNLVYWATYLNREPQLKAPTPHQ
# UniProt P63079: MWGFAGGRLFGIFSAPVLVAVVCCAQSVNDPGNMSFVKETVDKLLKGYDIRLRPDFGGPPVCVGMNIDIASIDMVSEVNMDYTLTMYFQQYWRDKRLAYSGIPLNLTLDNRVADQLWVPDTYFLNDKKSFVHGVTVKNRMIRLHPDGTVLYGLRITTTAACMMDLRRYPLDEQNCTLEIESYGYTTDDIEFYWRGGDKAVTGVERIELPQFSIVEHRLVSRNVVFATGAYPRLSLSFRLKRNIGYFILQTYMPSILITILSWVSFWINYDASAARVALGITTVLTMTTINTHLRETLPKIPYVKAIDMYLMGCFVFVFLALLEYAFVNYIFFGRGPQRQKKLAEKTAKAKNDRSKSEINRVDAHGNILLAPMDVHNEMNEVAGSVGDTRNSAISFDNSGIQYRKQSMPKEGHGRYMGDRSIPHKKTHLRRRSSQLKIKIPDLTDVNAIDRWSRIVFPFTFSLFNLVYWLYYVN
# UniProt P63138: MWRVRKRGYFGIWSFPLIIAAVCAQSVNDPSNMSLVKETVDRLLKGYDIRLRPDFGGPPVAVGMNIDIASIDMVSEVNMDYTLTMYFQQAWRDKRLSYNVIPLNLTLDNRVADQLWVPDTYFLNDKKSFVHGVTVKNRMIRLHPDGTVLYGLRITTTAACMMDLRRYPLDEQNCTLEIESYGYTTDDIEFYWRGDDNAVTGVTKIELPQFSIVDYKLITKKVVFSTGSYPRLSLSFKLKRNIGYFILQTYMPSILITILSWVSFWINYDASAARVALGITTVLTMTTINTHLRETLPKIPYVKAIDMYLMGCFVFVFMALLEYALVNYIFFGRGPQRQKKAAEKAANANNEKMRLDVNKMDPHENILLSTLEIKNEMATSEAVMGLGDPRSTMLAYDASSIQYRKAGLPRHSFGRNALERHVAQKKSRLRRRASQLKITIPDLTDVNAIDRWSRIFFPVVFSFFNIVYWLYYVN
# UniProt Q9ES14: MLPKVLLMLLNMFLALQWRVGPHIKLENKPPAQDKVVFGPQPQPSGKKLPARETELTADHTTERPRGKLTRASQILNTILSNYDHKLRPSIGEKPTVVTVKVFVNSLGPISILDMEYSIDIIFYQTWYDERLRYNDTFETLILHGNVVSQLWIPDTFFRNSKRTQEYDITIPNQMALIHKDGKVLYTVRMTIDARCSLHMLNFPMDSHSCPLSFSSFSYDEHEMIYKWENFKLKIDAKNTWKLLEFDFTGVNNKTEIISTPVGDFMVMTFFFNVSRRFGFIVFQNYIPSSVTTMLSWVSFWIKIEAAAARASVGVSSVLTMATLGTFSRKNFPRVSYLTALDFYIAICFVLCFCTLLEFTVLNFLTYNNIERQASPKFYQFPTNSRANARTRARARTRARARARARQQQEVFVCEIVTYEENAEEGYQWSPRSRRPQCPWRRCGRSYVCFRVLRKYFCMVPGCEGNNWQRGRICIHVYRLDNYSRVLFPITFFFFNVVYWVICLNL
# Molecular target: GABA-A receptor; anion channel (Rattus norvegicus) (UniProt O09028+P15431+P18506+P18508+P19969+P20236+P23574+P23576+P28471+P28473+P30191+P62813+P63079+P63138+Q91ZM7+Q9ES14)
# Experiment: Binding constant was determined by displacing potential to [3H]-diazepam binding in cerebral cortex homogenates of rat
# Type: tissue-based
# In short: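 Wistar rat cerebral cortex homogenate incubated with compound and 2 nM [3H]diazepam at 0 °C for 60 min. Bound label trapped on glass filters and counted by scintillation. Ki = IC50/(1 + L/Kd).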
smiles,measurement,value
CNC1=Nc2ccc(Cl)cc2C(c2ccccc2)=[N+]([O-])C1 [CHLORDIAZEPOXIDE],K2,0.202 µM
